System: WT1-C1498 cells
Set-up: species or system C57BL/6 mice
Conditions: mouse, in vivo

Arg Met Phe Pro Asn Ala Pro Tyr Leu [WT1 peptide]
day on which all of the mice were dead: 58 days
disease free survival rate: 0%
